Source: PubChem
Hits are enriched below; roughly 0.62% of the tested compounds scored in any of these assays.
IL-2 act = activators of IL-2. IL-2 activation reporter assay, cell-based qHTS; stimulated with anti-CD3/CD4/CD28 beads; in transgenic mouse T cells. activation, % (series mostly up to about 46 µM). 0.065% of 360,000 active; in the data active = activation above about 50%; inconclusive = mostly about 30% to 49%; note: 0% is about no effect
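Readout: EGFP and DsRed signals by fluorescent plate cytometry. Unstimulated transgenic mouse T cells received compound 60 min before antibody-bead stimulation, then incubated 18 h at 37 degrees C.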
Epigenetic reg = epigenetic control regulation, reporter derepression; murine LDR cells, GFP reporter derepression, 30 h; Potency, µM (highest dose often 53.9 µM), inactives show top-dose GFP activation, most hits filed as activators; 0.2% of 280,000 active; AID 1865; note: potency is the fitted concentration of half-maximal effect; % of control where 0% means no effect; nearly all actives have a fitted effect of over 60% in size
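GFP-positive cell count by laser-scanning cytometry (objects 20–120 um) after 30 h, 37 C compound exposure of murine LDR cells; reporter is CMV-GFP integrated at a silenced locus, inducible by HDAC or DNMT inhibitors.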
p53 reactivator = re-activators of mutant p53. H1299 p53-A138V BP100-luciferase reporter, luminescence, 24 h. Potency, µM (highest dose often 92.2 µM), inactives show at the top dose activity change, positive = activation, actives largely listed as activators. 0.063% of 320,000 active; note: potency is the fitted concentration of half-maximal effect; % of control where 0% means no effect; nearly all actives have a fitted effect of over 45% in size
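H1299 (p53-null), stable ts p53-A138V + BP100-Luc; 1000 cells/well, Opti-MEM/10% FBS; cpd 4 pt, 1:5; 24 h, 37 deg C, 5% CO2; detection reagent 10 min RT; luminescence.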
miR-21 reporter = miR-21 reporter, rising signal. HeLa miR-21 FLuc reporter, luciferase, 48 h. Potency, µM (highest dose often 38.3 µM), for the others: at the highest dose reporter change, positive = more light. 340,000 tested, under 10 active. AID 2288; active = well fitted rising curve with a large enough effect; inconclusive = small, poorly fitted or top-dose-only effect; inactive = no such curve, though single readings can be large or run the other way;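 further: % of control where 0% means no effect; miR-21 action dims this reporter so a rising signal means less miR-21 action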
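HeLa miR-21-FLuc reporter line, endogenous miR-21; 2000 cells/well in DMEM/10% FBS; compound titration up to ~40uM final, 48 h, 37 degree Celsius; luciferase detection reagent, 15 min lysis, CCD luminescence.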
PINK1 expr mod = changes PINK1 expression; Potency, µM (highest dose often 76.6 µM), for inactives: top-dose activation (PINK1 increase), most hits filed as activators; PINK1 immunofluorescence, high-content cytometry, 24 h; 0.2% of 410,000 active; active = well fitted activation curve with a large enough effect; inconclusive = small, poorly fitted or top-dose-only effect; cell line not stated here; note: potency is the fitted concentration of half-maximal effect; % of control where 0% means no effect; nearly all actives have a fitted effect of over 65% in size
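Readout is PINK1 immunofluorescence, quantified alongside mitochondrial, cell and nuclear markers by laser-scanning microplate cytometry. Cells from a stable line were exposed to compound titrations (5 concentrations) for 24 hours, with CCCP controls.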
uPA generation = cell surface uPA generation inhibition; Potency, µM (highest dose often 38.3 µM), for the others: at the highest dose activity change, negative = inhibition, most hits filed as inhibitors; cell surface uPA generation assay, qHTS; AID 540303; 0.31% of 330,000 active; active = well fitted inhibition curve with a large enough effect; inconclusive = small, poorly fitted or top-dose-only effect; inactive = no such curve, though single readings can be large or run the other way; tested in mouse RAW 264.7 cells; note: potency is the fitted concentration of half-maximal effect; % is set by controls: 0 for no effect and ±100 for the full control effect; nearly all actives have a fitted effect of over 55% in size
Active calls of the source: *; ? = inconclusive; · = no result. Unless noted, calls come from the whole dose curve; as a rule, active = well fitted curve in the direction sought with a large enough effect; inconclusive = small, poorly fitted or top-dose-only effect, or another doubt; inactive = no such curve, though single readings can be large; an effect the other way counts as inactive or inconclusive.

| IL-2 act | Epigenetic reg | p53 reactivator | miR-21 reporter | PINK1 expr mod | uPA generation | SMILES |
| --- | --- | --- | --- | --- | --- | --- |
| · | · | · | · | 0% | · | COc1cc(-c2cc(C)c3cccc(OC)c3n2)cc2c1OCCN(C(=O)CCn1ccc(C)n1)C2 |
| · | · | · | · | 1% | · | COc1ccccc1C1CN(CC(=O)N2CCC(C(O)c3ccccn3)CC2)Cc2ccccc2O1 (stereo not drawn) |
| 0 | · | -20% | · | 0% | ? | CC1(C2CC2)NC(=O)N(CC(=O)Nc2cc(S(=O)(=O)N3CCCCC3)ccc2Cl)C1=O (stereo not drawn) |
| 2 | 7% | 0% | -1% | 3% | 5.6µM* | CN(C)S(=O)(=O)c1ccc(Cl)c(NC(=O)CN2C(=O)NC(C)(C3CC3)C2=O)c1 (stereo not drawn) |
| 260* | 6.3µM* | ? | -54% | ? | 0% | COc1ccc2c(n1)Sc1nc3ccccc3nc1N2 |
| · | · | · | · | 0% | · | O=C(c1cccc(N2CCCC2=O)c1)N1CCC(Oc2cccc(CN3CCN(c4ccccn4)CC3)c2)CC1 |
| · | · | · | · | -1% | · | CCC1C(=O)NCCN1Cc1ccc2c(c1)CN(Cc1cc(OC)c3c(c1)OCO3)CCO2 (stereo not drawn) |
| -3 | -1% | ? | 8% | 13µM* | -17% | CCCc1sc(N/N=C/c2ccccn2)nc1-c1ccc(F)cc1 |
| -1 | 8% | -3% | ? | 12% | -13% | Cc1nc(N/N=C/c2ccccn2)sc1C |
| 1 | · | ? | · | 0% | 4µM* | Nc1c(Cl)cc(C2=NCCn3c2c2ccc([N+](=O)[O-])cc2[n+]3[O-])cc1Cl |

Next results:
| IL-2 act | Epigenetic reg | p53 reactivator | miR-21 reporter | PINK1 expr mod | uPA generation | SMILES |
| --- | --- | --- | --- | --- | --- | --- |
| · | · | · | · | -1% | · | CCN(CC)C(=O)N1CCN(/[N+]([O-])=N/Oc2ccc([N+](=O)[O-])cc2[N+](=O)[O-])CC1 |
| -1 | 4% | -8% | ? | 0% | 11µM* | O=C(Cn1ncc(Cl)c(Cl)c1=O)N1CCN(Cc2ccccc2)CC1 |
| 3 | 5% | 5% | 0% | 14µM* | -6% | COc1ccc2nc3ccccc3nc2c1NC(=O)c1ccc(Br)cc1 |
| -2 | ? | -4% | -9% | ? | -3% | COc1ccc2nc3ccccc3nc2c1NC(=O)c1ccc(Cl)cc1 |
| -1 | -1% | ? | -30% | -3% | -9% | COc1cccc(-c2nnc(-c3ccc(C)o3)o2)c1 |
| 2 | -8% | 40µM* | -41% | -2% | -13% | COc1cccc(-c2nnc(-c3ccco3)o2)c1 |
| · | · | · | · | 0% | · | Cc1c(C(=O)NCC(C)C)sc2ncnc(NCC3CCCO3)c12 (stereo not drawn) |
| -2 | · | ? | -41% | -1% | 6.3µM* | O=C(CSc1nnc(NC(=O)c2ccccc2F)s1)NCC1CCCO1 (stereo not drawn) |
| · | 16µM* | · | 3% | 0% | · | CCOC(=O)N1CCc2c(sc3c2c(=O)n(-c2ccc(F)cc2)c(=O)n3CC(=O)c2ccc(Cl)cc2)C1 |
| 0 | · | -1% | 1% | 5% | 0.5µM* | Cc1ccc(-n2nc3c(=O)n(CC(=O)NCCCc4ccccc4)nc(C)c3c2C)cc1 |

(further entries)
| IL-2 act | Epigenetic reg | p53 reactivator | miR-21 reporter | PINK1 expr mod | uPA generation | SMILES |
| --- | --- | --- | --- | --- | --- | --- |
| · | -1% | · | -10% | -2% | · | Cc1nn(CC(=O)NCCc2ccccc2)c(=O)c2nn(-c3ccccc3)c(C)c12 |
| 1 | 0% | 5% | -38% | -1% | 4µM* | O=C(CCC(=O)N1CCN(c2ccc(O)cc2)CC1)c1cccs1 |
| · | · | · | · | -1% | · | COC(=O)c1ccc(C(=O)NCC2Cc3cccc(-c4ccc(C(=O)OC)cn4)c3O2)cc1 (stereo not drawn) |
| · | · | · | · | 2% | · | C(=C1c2ccccc2Oc2ccccc21)c1ccccc1 |
| · | · | · | · | 1% | · | Cc1ccccc1C(=O)N1CCc2c(cnc(C)c2CNC(=O)c2ccc3c(c2)OCO3)C1 |
| -3 | 1% | -1% | -65% | 1% | 3.5µM* | COc1cc(N/N=C/c2ccc(N(C)C)cc2)ncn1 |
| · | · | · | · | 0% | · | Cc1c(C(=O)NCc2cccc(F)c2)sc2ncnc(NCC3CCCO3)c12 (stereo not drawn) |
| 1 | · | · | · | 28µM* | 7% | CC(C=NNc1ccc([N+](=O)[O-])cn1)=Cc1ccccc1 |
| -1 | · | · | · | -1% | 5% | O=C(O)c1ccccc1C=NNc1ccc([N+](=O)[O-])cn1 |
| 58* | · | · | · | 2% | 0% | O=[N+]([O-])c1ccc(NN=Cc2cccc3ccccc23)nc1 |

A second format for some results above:
structure	IL-2 act	Epigenetic reg	p53 reactivator	miR-21 reporter	PINK1 expr mod	uPA generation
COc1cccc(-c2nnc(-c3ccc(C)o3)o2)c1	-1	-1%	?	-30%	-3%	-9%
COc1cccc(-c2nnc(-c3ccco3)o2)c1	2	-8%	40µM*	-41%	-2%	-13%

Next structures:
| IL-2 act | Epigenetic reg | p53 reactivator | miR-21 reporter | PINK1 expr mod | uPA generation | SMILES |
| --- | --- | --- | --- | --- | --- | --- |
| -4 | · | · | · | 4% | 1% | CC(=NNc1ccc([N+](=O)[O-])cn1)c1ccccc1 |
| · | · | · | · | 1% | · | CCc1cc(C(=O)NCC2Cc3cccc(-c4ccc(C(=O)OC)cn4)c3O2)no1 (stereo not drawn) |
| · | · | · | · | 1% | · | O=C(NCC1(N2CCOCC2)CCCC1)c1cnn(-c2ncc3c(n2)-c2ccccc2CC3)c1C1CC1 |
| · | · | · | · | -1% | · | COc1cc(CNc2nc(C)c(-c3ccn(CC4CCCN(C)C4)n3)s2)ccc1F (stereo not drawn) |
| -1 | -1% | 40µM* | -38% | 16% | 6% | CCCC(=O)c1ccc(N2CCCCCC2)c(F)c1 |
| 0 | · | · | 8% | 1% | 2% | CCOC(=O)[C@@H]1[C@H]2COc3cc(OC)ccc3[C@@H]2N2C(=O)N(c3ccc(C(F)(F)F)cc3)C(=O)[C@@]12C |
| -1 | · | 6% | · | 40µM* | ? | CCOC(=O)[C@@H]1[C@H]2COc3cc(OC)ccc3[C@H]2N2C(=O)N(c3ccc(C(F)(F)F)cc3)C(=O)[C@]12C |
| -1 | 2% | 10% | 7% | 0% | -12% | CS(=O)(=O)N1CCN(c2ccccc2NC(=O)c2ccc([N+](=O)[O-])o2)CC1 |
| -2 | -1% | 11µM* | 1% | 0% | -8% | Cc1cccnc1NC(=O)c1ccc([N+](=O)[O-])o1 |
| -2 | · | 29% | 11% | 0% | 4.5µM* | CN1CCN(c2ccccc2NC(=O)c2ccc([N+](=O)[O-])o2)CC1 |

(further entries)
| IL-2 act | Epigenetic reg | p53 reactivator | miR-21 reporter | PINK1 expr mod | uPA generation | SMILES |
| --- | --- | --- | --- | --- | --- | --- |
| · | · | · | · | 0% | · | CN1C(=O)CC(CC(=O)N2CCCCC2CCO)(c2cccc(F)c2)C1=O (stereo not drawn) |
| · | · | · | · | 0% | · | O=C(NCC1Cc2cccc(-c3cnccn3)c2O1)c1ccc2c(c1)OCCO2 (stereo not drawn) |
| · | · | · | · | 0% | · | Cc1ccc(C(=O)Nc2cccc(-c3nc(CNC(=O)c4ccc(F)cc4Cl)c(C)o3)c2)s1 |
| 0 | · | 12% | · | 22µM* | ? | Cc1cccc(CNc2ncnc3ccc(-c4ccc5c(c4)OCCO5)cc23)c1 |
| -2 | · | · | · | 20µM* | · | CC1(C)CC(=Cc2cc(O)ccc2[N+](=O)[O-])C(=O)c2ccccc21 |
| -1 | ? | -11% | ? | -2% | ? | O=C1/C(=C/c2ccccc2[N+](=O)[O-])COc2ccccc21 |
| 122* | · | ? | ? | 12% | 5% | C/C(=N\Nc1ncnc2sc(C)c(C)c12)c1ccccn1 |
| 71* | 0.63µM* | -4% | -21% | 0% | -3% | C/C(=N\Nc1ncc(Cl)cc1Cl)c1ccccn1 |

5 compounds out of the list above, ordered by the value under IL-2 act, falling.
structure,IL-2 act
O=[N+]([O-])c1ccc(NN=Cc2cccc3ccccc23)nc1,58*
COc1cccc(-c2nnc(-c3ccco3)o2)c1,2
CC1(C2CC2)NC(=O)N(CC(=O)Nc2cc(S(=O)(=O)N3CCCCC3)ccc2Cl)C1=O (stereo not drawn),0
CS(=O)(=O)N1CCN(c2ccccc2NC(=O)c2ccc([N+](=O)[O-])o2)CC1,-1
CC(=NNc1ccc([N+](=O)[O-])cn1)c1ccccc1,-4
